Measured values published in patent US10800749B2, “Centrally active and orally bioavailable antidotes for organophosphate exposure and methods for making and using them” (dated 2020).

Sequences of proteins named here, by UniProt entry; tags and fusion partners are left off. A change or cut given only in a name is not applied to a line headed by its entry.
UniProt P22303: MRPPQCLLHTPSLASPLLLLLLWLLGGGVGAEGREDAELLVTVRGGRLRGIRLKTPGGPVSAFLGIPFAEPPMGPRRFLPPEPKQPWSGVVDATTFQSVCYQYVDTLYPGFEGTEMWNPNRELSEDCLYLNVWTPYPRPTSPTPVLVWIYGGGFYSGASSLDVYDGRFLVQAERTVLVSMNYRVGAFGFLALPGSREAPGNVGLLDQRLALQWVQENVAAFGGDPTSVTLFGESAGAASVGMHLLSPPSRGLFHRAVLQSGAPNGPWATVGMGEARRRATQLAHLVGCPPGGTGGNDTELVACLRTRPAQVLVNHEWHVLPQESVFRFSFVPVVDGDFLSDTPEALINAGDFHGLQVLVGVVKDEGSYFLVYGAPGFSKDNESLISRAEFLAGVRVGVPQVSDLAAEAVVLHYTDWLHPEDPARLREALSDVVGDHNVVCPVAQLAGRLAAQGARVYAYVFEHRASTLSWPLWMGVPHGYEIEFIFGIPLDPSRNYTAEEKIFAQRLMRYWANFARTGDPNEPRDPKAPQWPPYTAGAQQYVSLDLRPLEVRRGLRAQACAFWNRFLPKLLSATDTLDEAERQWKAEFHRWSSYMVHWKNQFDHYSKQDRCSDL

What was measured:
[1] = Oxime pharmacokinetics in mice (plasma and brain)
[2] = Ionization state analysis combining UV, 1H NMR and oximolysis (Table 3)
male CD-1 mice = conditions: i.m., 24-h mortality
[3] = pH dependence of ATCh oximolysis; conditions: 1.0 mM ATCh, 0.1 mM oxime, 22° C., 20 mM phosphate-pyrophosphate buffers
[4] = pH dependence of VX Flu-MP oximolysis; conditions: 0.1 mM VX Flu-MP, 0.5 mM oxime, 22° C., 20 mM phosphate-pyrophosphate buffers
[5] = Oxime pKa determination by 1H NMR in D2O buffers
VX-inhibited hAChE = VX-inhibited hAChE (Homo sapiens, UniProt P22303); assay: In vitro oxime reactivation of VX-hAChE conjugate (initial screen); conditions: 0.67 mM oxime, 37° C., 0.10 M phosphate buffer pH 7.4; approximate, uncertainty about 50%
sarin-inhibited hAChE = sarin-inhibited hAChE (Homo sapiens, UniProt P22303); assay: In vitro oxime reactivation of sarin-hAChE conjugate (initial screen); conditions: 0.67 mM oxime, 37° C., 0.10 M phosphate buffer pH 7.4; approximate, uncertainty about 50%
paraoxon-inhibited hAChE = paraoxon-inhibited hAChE (Homo sapiens, UniProt P22303); assay: In vitro oxime reactivation of paraoxon-hAChE conjugate (initial screen); conditions: 0.67 mM oxime, 37° C., 0.10 M phosphate buffer pH 7.4; approximate, uncertainty about 50%
[6] = target: cyclosarin-inhibited hAChE (Homo sapiens, UniProt P22303); assay: In vitro oxime reactivation of cyclosarin-hAChE conjugate (initial screen); conditions: 0.67 mM oxime, 37° C., 0.10 M phosphate buffer pH 7.4; approximate, uncertainty about 50%
[7] = single i.m. dose, 80 mg/kg RS194B or 30 mg/kg RS41A

O=C(C=NO)NCCN1CCCCCC1
Oral absorption (bioavailability F) ([1]; estimated from PK parameters upon intravenous and oral administration, not very accurate): ≥ 60% | Signs of toxicity on repetitive dosing ([1]; loading dose 220 mg/kg, maintenance oral doses 110 mg/kg every 2 hr): No signs of toxicity | Concentration found in CNS ([1]; mice, i.m.): up to 37 μιη | Maximal brain concentration [1, 7]: 7.9 µg/mL | Maximal brain concentration, molar equivalent [1, 7]: approximately 37 μM | Maximal concentration in plasma [1, 7]: 10 µg/mL | Maximal concentration in plasma, molar equivalent [1, 7]: 54 μιη | Time for maximal brain concentration to reduce in half [1, 7]: 60 min | Time for maximal plasma concentration to decay by half [1, 7]: 12 min | fraction in protonated, cationic form ([2]; physiological pH 7.4): more than 90%

2-pyridinealdoxime methiodide
LD50, acute toxicity (male CD-1 mice): 106 mg/kg | pKa from pH dependence of ATCh oximolysis [3]: 8 | pKa from pH dependence of VX Flu-MP oximolysis [4]: 8.1 | pKa of oxime group from 1H NMR, equivalent in H2O ([5]; D2O value minus 0.5): 8.1 | pKa of oxime group from 1H NMR chemical shift ([5]; in D2O, 2.0 mM oxime): 8.6 | kobs, first order reactivation rate constant (VX-inhibited hAChE): 0.15 min 1 | kobs, first order reactivation rate constant (sarin-inhibited hAChE): 0.16 min 1 | zwitterionic species, share of all forms ([2]; pH 8.4): more than 50% | kobs, first order reactivation rate constant (paraoxon-inhibited hAChE): 0.087 min | kobs, first order reactivation rate constant [6]: 0.025 min 1

N-(2-(4-Azatricyclo[4.3.1.13′8]undecan-4-yl)ethyl)-2-(hydroxyimino)acetamide
LD50, acute toxicity (male CD-1 mice): 238 mg/kg
